Test results taken from patent US6645903B2, “Fluoroborane salts comprising a reactive cation and uses thereof” (Colorado State University Research Foundation, priority 2000, dated 2003).

Assay: Solubility in organic solvents
Description: Hexanes and an excess of trimethylaluminum were removed under vacuum.
A mixture of [CPh3][(CH3)3NB12F11] […] A mixture was stirred under a nitrogen atmosphere for 20 h.
The orange microcrystalline compound (CPh3)2B12F12 (0.195 g, 0.231 mmol) was treated with 2 ml of toluene solution of AlMe3 (0.161 g, 2.240 mmol). […] The mixture was stirred for additional 40 hours.

With Al(CH3)2(1-C12H25-CB11F11) the solubility in hexanes (hexanes) was “at least 0.02 M”, the “solubility in aliphatic hydrocarbon solvents” value (hexanes, methylcyclohexane) was “highly soluble” and the “solubility in aliphatic hydrocarbon solvents” value (hexanes, methylcyclohexane, listed as AlMe2(1-Dd-CB11F11)) was “soluble”. The solubility in methylcyclohexane (methylcyclohexane) was “at least 0.05 M”.
